Laboratory results published in paper PMC7035247 (Scientific Reports, 2020).
Read-outs that look alike come from different tables or passages of the source.

Tested on: S. cerevisiae JPY201 expressing Pgp variants
Details: for Growth reached in continuous FK506 drug resistance assay: in about 30 hours, when WT Pgp had reached confluency, 23 °C; for Resistance to FK506 (relative to Wt Pgp): 50 µg/ml FK506

C=CC[C@@H]1/C=C(\C)C[C@H](C)C[C@H](OC)[C@H]2O[C@@](O)(C(=O)C(=O)N3CCCC[C@H]3C(=O)O[C@H](/C(C)=C/[C@@H]3CC[C@@H](O)[C@H](OC)C3)[C@H](C)[C@@H](O)CC1=O)[C@H](C)C[C@@H]2OC [FK506]
FK506 resistance (yeast expressing Trp-free mutants A, B, and C of Fig. 4, 50 μg/ml FK506 for 30 hrs): < 20 % of WT activity
Drug resistance (FK506) (yeast expressing Trp-free mutants D, E, F and G of Fig. 4, 50 μg/ml FK506 for 30 hrs): < 20 % of WT activity
Time to 50% growth in continuous FK506 drug resistance assay (yeast expressing W(3Cyto)): 28 h
Growth reached in continuous FK506 drug resistance assay (yeast expressing W(3Cyto)): ~ 70%
Time to 50% growth in continuous FK506 drug resistance assay (yeast expressing WL-Pgp): 32 h
Growth reached in continuous FK506 drug resistance assay (yeast expressing WL-Pgp): ~ 40%
Time to 50% growth in continuous FK506 drug resistance assay (yeast expressing WT Pgp): 24 h
Resistance to FK506 (relative to Wt Pgp) (yeast expressing mutant B (W(3Cyto))): 77 ± 6%
Resistance to FK506 (relative to Wt Pgp) (yeast expressing mutant C (eight TMD Trps replaced)): 68 ± 11%
